Measurements as given in US9492408B2, “Protection from chemical-induced acute lung injury” (dated 2016).

Assays:
mice exposed to chlorine = assay: Chlorine-induced acute lung injury, survival in mice
mice exposed to phosgene = assay: Phosgene-induced acute lung injury, survival in mice

CC(C)(C)C(=O)Nc1ccc2c(c1)C(=O)C(=O)c1ccccc1-2
survival (in words) (mice exposed to chlorine; 300 ppm chlorine 45 min, 5 mg/kg i.p. 30 min post exposure (FIG. 2)): enhances survival
net improvement in survival (mice exposed to chlorine; SF1670 5 mg/kg i.p. vs saline treatment, 300 ppm chlorine 45 min): 45.5%
survival (mice exposed to chlorine; mice, 300 ppm chlorine for 45 min, SF1670 5 mg/kg i.p. 30 min post exposure, saline 37.5%): 83%
survival (in words) (mice exposed to phosgene; 30 ppm phosgene, 5 mg/kg i.p. 30 min post exposure (FIG. 4)): enhances survival
efficacy compared with bpV(Phen) (mice exposed to phosgene; in these studies): more effective than bpV(Phen)
survival (mice exposed to phosgene; mice, 30 ppm phosgene for 1 hour, 5 mg/kg i.p. (FIG. 4)): 20%

Potassium bisperoxo(1,10-phenan-throline)oxovanadate
survival curves vs saline injected control (mice exposed to chlorine; 300 ppm chlorine 45 min, 0.7 μmol i.p. 30 minutes post exposure): not different from saline injected control
benefit in chlorine (in words) (mice exposed to chlorine; overall judgement): only somewhat beneficial
survival curves vs saline injected control (mice exposed to phosgene; 30 ppm phosgene 1 hour, 0.7 μmol 30 min post exposure): not different from saline injected control
benefit in phosgene (in words) (mice exposed to phosgene; overall judgement): only somewhat beneficial
reduction of mortality (mice exposed to phosgene; phosgene, 0.3 μmol, milestone target >20% (FIG. 3)): ≤ 20%
effective dose range (mice exposed to phosgene; very narrow effective dose range): less than 1 log
